Laboratory results published in patent US10273227B2, “C5-anilinoquinazoline compounds and their use in treating cancer” (AstraZeneca AB, priority 2017, dated 2019).

Chains of the proteins cited; added tags and fusions are not shown. A line that says so, or that is headed by a name, gives the form on record, which may keep a tag or linker.
UniProt P10721, with tags, fused parts or gaps D816H/DEL557-558 limits assumed: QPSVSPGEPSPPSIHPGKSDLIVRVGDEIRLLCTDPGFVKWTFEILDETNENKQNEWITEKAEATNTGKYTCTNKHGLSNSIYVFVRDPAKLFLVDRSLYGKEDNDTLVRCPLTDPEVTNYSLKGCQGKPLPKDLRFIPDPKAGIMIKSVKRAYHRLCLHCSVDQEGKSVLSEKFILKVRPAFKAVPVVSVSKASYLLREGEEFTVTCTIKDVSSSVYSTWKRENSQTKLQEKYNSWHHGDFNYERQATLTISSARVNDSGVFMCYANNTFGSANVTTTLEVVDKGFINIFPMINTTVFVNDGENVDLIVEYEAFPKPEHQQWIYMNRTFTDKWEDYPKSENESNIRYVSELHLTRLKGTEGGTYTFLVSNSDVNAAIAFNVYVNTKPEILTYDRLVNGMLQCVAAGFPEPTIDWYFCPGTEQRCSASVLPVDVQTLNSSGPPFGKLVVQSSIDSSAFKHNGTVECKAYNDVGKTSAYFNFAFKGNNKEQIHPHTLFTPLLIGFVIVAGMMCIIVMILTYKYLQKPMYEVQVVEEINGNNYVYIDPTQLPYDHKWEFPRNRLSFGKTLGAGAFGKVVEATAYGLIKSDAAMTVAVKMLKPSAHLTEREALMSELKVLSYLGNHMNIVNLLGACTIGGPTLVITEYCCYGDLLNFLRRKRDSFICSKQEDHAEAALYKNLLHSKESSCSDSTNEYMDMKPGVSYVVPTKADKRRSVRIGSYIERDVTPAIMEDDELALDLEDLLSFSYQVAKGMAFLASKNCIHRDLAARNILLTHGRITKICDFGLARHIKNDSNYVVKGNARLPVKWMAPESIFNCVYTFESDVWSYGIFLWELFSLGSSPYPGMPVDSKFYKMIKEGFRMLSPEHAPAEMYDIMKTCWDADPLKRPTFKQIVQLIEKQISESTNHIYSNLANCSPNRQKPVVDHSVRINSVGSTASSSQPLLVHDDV
UniProt P10721, with tags, fused parts or gaps DEL557-558/T670I limits assumed: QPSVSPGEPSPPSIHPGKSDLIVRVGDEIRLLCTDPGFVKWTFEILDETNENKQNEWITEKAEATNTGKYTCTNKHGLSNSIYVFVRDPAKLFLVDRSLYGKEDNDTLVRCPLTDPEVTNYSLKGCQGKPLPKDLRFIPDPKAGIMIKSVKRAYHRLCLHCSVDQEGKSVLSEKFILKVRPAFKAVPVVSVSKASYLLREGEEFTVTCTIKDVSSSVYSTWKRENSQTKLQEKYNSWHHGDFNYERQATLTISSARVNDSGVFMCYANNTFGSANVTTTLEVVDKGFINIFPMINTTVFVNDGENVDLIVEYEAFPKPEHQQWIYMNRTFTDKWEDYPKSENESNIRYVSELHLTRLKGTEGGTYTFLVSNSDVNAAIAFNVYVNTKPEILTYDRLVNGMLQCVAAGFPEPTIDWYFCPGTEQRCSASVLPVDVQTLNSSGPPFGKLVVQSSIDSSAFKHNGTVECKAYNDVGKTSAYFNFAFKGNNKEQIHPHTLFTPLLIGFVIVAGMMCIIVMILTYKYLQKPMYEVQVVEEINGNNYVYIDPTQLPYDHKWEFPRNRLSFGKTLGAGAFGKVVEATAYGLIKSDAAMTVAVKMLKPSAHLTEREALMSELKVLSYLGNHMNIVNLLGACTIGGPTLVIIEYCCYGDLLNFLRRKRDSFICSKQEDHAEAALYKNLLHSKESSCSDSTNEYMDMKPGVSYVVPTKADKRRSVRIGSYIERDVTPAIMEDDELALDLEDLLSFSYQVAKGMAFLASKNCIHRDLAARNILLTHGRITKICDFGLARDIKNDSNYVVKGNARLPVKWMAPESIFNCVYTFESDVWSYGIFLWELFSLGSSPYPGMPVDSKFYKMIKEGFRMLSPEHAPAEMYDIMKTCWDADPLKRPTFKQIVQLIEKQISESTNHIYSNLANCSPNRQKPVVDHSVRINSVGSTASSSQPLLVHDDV
UniProt P10721, with tags, fused parts or gaps DEL557-558/V654A limits assumed: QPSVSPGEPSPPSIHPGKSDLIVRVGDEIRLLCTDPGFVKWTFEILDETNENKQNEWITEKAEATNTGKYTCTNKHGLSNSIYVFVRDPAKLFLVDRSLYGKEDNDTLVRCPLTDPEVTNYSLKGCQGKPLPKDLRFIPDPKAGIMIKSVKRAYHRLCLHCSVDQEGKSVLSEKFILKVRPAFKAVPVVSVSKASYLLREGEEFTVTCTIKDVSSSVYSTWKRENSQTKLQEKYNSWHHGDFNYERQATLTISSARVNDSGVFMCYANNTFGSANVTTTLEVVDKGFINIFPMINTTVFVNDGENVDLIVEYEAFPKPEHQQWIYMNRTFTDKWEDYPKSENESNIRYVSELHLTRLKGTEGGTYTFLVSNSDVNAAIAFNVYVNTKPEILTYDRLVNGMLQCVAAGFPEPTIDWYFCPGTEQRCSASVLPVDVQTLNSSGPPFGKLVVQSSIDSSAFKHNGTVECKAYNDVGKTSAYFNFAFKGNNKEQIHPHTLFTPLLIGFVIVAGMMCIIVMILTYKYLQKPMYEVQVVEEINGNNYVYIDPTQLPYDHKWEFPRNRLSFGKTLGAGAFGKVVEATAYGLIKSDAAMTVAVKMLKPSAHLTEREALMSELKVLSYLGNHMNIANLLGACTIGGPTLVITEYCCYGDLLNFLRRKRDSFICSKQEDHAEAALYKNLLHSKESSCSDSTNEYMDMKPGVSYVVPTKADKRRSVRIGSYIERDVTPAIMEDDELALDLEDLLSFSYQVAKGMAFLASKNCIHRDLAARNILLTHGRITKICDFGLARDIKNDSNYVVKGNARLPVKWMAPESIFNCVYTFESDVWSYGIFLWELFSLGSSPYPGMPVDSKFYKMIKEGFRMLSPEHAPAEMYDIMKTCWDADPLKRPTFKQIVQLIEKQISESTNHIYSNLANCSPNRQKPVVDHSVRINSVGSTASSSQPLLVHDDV

Columns and labels:
[1] = target: Ba/F3-T670I (KIT exon11 deletion (557-558) and secondary mutation T670I) (Homo sapiens, UniProt P10721, DEL557-558/T670I); assay: MTS viability assay, Ba/F3 expressing KIT exon11 deletion (557-558) and T670I; details: read-out: Ba/F3-T670I GI50, 72 h incubation, top concentration 10 uM
[2] = target: Ba/F3-V654A (KIT exon11 deletion (557-558) and secondary mutation V654A) (Homo sapiens, UniProt P10721, DEL557-558/V654A); assay: MTS viability assay, Ba/F3 expressing KIT exon11 deletion (557-558) and V654A; details: read-out: Ba/F3-V654A GI50, 72 h incubation, top concentration 10 uM
[3] = system: Ba/F3-Parental; assay: MTS viability assay, Ba/F3 parental cells; details: read-out: Ba/F3-Parental GI50, 72 h incubation, top concentration 10 uM
Procedure: Exponentially grown Ba/F3 cells (1.5×10^6 cells in 2 ml medium) were infected with 2 ml of viral suspension in a 6-well plate in the presence of mIL-3 (10 ng/ml) and polybrene (4 μg/ml) (Sigma Aldrich, St. Louis, Mo.) and incubated for 24 h. After 24 h, the cells were centrifuged and the viral supernatant was discarded. The cells were then re-suspended in fresh medium and allowed to recover for another day. The following day, the cells were seeded in complete medium without murine IL-3. After a week or two, when cells started proliferating, a selection was carried out by gradually increasing the puromycin concentration to 0.5 ug/ml. […]
(§1) The impact of KIT inhibitors on the viability of Ba/F3 expressing KIT mutations was determined using an MTS assay, which is a colorimetric sensitive quantification of viable cells in proliferation and cytotoxicity assay. […] After 72 h, MTS reagent was added to the plates and incubated an additional 2 h at 37° C. before measuring the absorbance at 490 nm on a Tecan microplate reader using Magellan Software (Tecan Trading AG, Switzerland).
(§2) The absorbances were normalized as follows: (Read-Day0 control)/(Day3 control−Day0 control)*100. […] The GI50 values reported below are the calculated mean result of at least 3 biological replicates across all the cell lines tested.

[4] = target: Ba/F3-D816H (KIT exon11 deletion (557-558) and secondary mutation D816H) (Homo sapiens, UniProt P10721, D816H/DEL557-558); assay: MTS viability assay, Ba/F3 expressing KIT exon11 deletion (557-558) and D816H; details: read-out: Ba/F3-D816H GI50, 72 h incubation, top concentration 10 uM
[5] = system: TEL-KDR (KDR (K790-V1356) fused to the C-terminus of Tel); assay: MTS viability assay, Ba/F3 expressing Tel-KDR; details: read-out: TEL-KDR GI50, 72 h incubation, top concentration 10 uM
Procedure: Tel-KDR myc was cloned into pBCS2004, a retroviral vector, wherein KDR (K790-V1356) is fused to the C-terminus of Tel. Retroviral particles were generated in HEK293T cells. The Tel-KDR plasmid was co-transfected with helper viruses (gag-Pol and VSV-G) into HEK293T cells using calcium phosphate and the virus was harvested 72 h after transfection.
Exponentially grown Ba/F3 cells (1.5×10^6 cells in 2 ml medium) were infected with 2 ml of viral suspension in a 6-well plate in the presence of mIL-3 (10 ng/ml) and polybrene (4 μg/ml) (Sigma Aldrich, St. Louis, Mo.) and incubated for 24 h. After 24 h, the cells were centrifuged and the viral supernatant was discarded. […]
as §1, §2

CCOc1cc(OC2CCOC2)cc2ncnc(Nc3ccc(NC(=O)Cn4cc(C(C)C)nn4)cc3)c12 (single isomer, unassigned) [Example 3]
GI50 [1]: 61 nM
GI50 [2]: 11 nM
GI50 [3]: 1470 nM
GI50 [4]: 42 nM
GI50 [5]: 1840 nM

CCOc1cc(OC2CCOC2)cc2ncnc(Nc3ccc(NC(=O)Cn4cc(C(C)C)nn4)cc3)c12 (single isomer, unassigned) [Example 4]
GI50 [1]: 49 nM
GI50 [2]: 12 nM
GI50 [3]: 1720 nM
GI50 [4]: 45 nM
GI50 [5]: 2220 nM
